Literature values as cited in patent US7993650B2, “Polypeptides having binding affinity for HER2” (Affibody AB, priority 2003, dated 2011).

Key:
[1] = test system: SK-BR-3 breast cancer cells overexpressing HER2 protein; conditions: compared to control monoclonal antibody; cited from earlier work
[2] = test system: human breast and ovarian cancers (xenografts) that overexpress HER2; conditions: mouse, in vivo; cited from earlier work

**Q.** For “4D5: murine anti-HER2 monoclonal antibody 4D5, or trastuzumab, marketed under the trade name Herceptin”, which tumor cell proliferation [1] is on record?
**A.** inhibit tumor cell proliferation

**Q.** What about the tumor-free survival time [2] of the same substance?
**A.** prolonged their tumor-free survival time
